Earlier results in article PMC10329699, “Pharmacokinetics, biodistribution and toxicology of novel cell-penetrating peptides” (Scientific Reports, 2023).

Conditions: i.v. injection in rats; ref Lee et al. 19, 40, 41

TAT-biotin
T1/2 distribution phase: 0.87 min | T1/2 elimination phase: 107 min
